Binding of CDR-mutated scFvs to a peptide of the spike HR2 region

Data: MIT Lincoln Laboratory AlphaSeq set, Engelhart et al. 2022, doi:10.1038/s41597-022-01779-4, as distributed in FLAb.

The target is the same throughout: PDVDLGDISGINAS, from the HR2 region of SARS-CoV-2 spike.

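The starting antibody came from a phage panning campaign against this peptide. Variants in AAYL52 differ from the parent at up to three CDR positions; double and triple changes were sampled at random. In AlphaSeq, yeast of one mating type display the scFv and yeast of the other type display the target. Binding brings cells together so that they mate, and sequencing counts the barcode pairs among the diploids. Each replicate has its own calibration line, from reference interactions of the BCL2 family. There are three technical replicates.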

Ab-95 is the parent antibody, in scFv form: VH, then the linker GGGGSGGGGSGGGGS, then VL. The heavy chain is unchanged in all variants.
VH: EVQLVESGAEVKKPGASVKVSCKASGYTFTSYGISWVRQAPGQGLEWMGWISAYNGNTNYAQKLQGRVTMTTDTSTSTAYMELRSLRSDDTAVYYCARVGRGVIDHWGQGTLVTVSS
VL: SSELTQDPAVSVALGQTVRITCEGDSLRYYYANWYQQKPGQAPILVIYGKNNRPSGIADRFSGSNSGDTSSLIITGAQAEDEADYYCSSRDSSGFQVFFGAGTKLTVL

Changes read parent residue, position, new residue, counted from the first residue of the VL shown.
All variants listed here change Y29 of the VL, counted from its first residue.
The Kd shown is the geometric mean over detected replicates; a lower Kd is a better binder.
"nd" means that the variant was in the library but no mating with the target was seen in any replicate; the authors take this as a sign of poor binding, and no number exists.

Variant Y29I/K50H/S92L showed nd (0 of 3 replicates; controls 1 of 9).
Variant D25T/Y29Q/Q96T showed 260 nM (3 of 3 replicates; controls 5 of 9).
Variant Y29I/N51E/S89H showed 12 µM (1 of 3 replicates; controls 0 of 9).
Variant E23S/Y29A/G49M showed 920 nM (3 of 3 replicates; controls 4 of 9).
Variant Y29G/A32L/D91P showed 7.0 µM (1 of 3 replicates; controls 2 of 9).
Variant G24L/Y29R/S89D showed 390 nM (2 of 3 replicates; controls 1 of 9).
Variant Y29P/G49N/S89N showed 5.3 µM (2 of 3 replicates; controls 3 of 9).
Variant Y29Q/R90F/Q96I showed 200 nM (3 of 3 replicates; controls 3 of 9).
Variant Y29Q/P54S/S89Y showed 14 µM (2 of 3 replicates; controls 1 of 9).
Variant G24Q/Y29R/S88D showed 7.8 µM (1 of 3 replicates; controls 2 of 9).
Variant L27Y/Y29C/P54S showed nd (0 of 3 replicates; controls 2 of 9).
Variant Y29H/F95D showed 1.4 µM (3 of 3 replicates; controls 3 of 9).
Variant Y29N/G94W/Q96T showed 27 nM (3 of 3 replicates; controls 3 of 9).
Variant E23Y/Y29W/G49Y showed nd (0 of 3 replicates; controls 0 of 9).
Variant Y29C/S93A/G94A showed 370 nM (1 of 3 replicates; controls 3 of 9).
Variant E23I/Y29F/F95V showed 470 nM (3 of 3 replicates; controls 4 of 9).
Variant G24R/Y29Q/Y31F showed 3.3 µM (3 of 3 replicates; controls 1 of 9).
Variant S26V/Y29F/F98E showed 4.9 µM (2 of 3 replicates; controls 1 of 9).
Variant Y29P/N33Q/G94H showed 2.5 µM (2 of 3 replicates; controls 5 of 9).
Variant S26L/Y29I/N52H showed nd (0 of 3 replicates; controls 3 of 9).
Variant Y29I/N52L showed 11 µM (2 of 3 replicates; controls 3 of 9).
Variant Y29V/N52L/S93K showed 3.4 µM (2 of 3 replicates; controls 0 of 9).
Variant Y29V/Y30A/S55A showed 8.6 nM (3 of 3 replicates; controls 6 of 9).
Variant Y29L/N33S/F98L showed 14 µM (2 of 3 replicates; controls 2 of 9).
Variant Y29K/Y31N/N51P showed 1.4 µM (2 of 3 replicates; controls 2 of 9).
Variant Y29N/D91Y/S92E showed 75 µM (2 of 3 replicates; controls 1 of 9).
Variant S26M/Y29L/Q96E showed 30 µM (1 of 3 replicates; controls 1 of 9).
Variant G24I/Y29K/S93E showed 1.0 µM (3 of 3 replicates; controls 2 of 9).
Variant Y29A/A32S/N33S showed 1.6 µM (2 of 3 replicates; controls 4 of 9).
Variant D25R/Y29P/D91P showed 810 nM (3 of 3 replicates; controls 5 of 9).
Variant L27Q/Y29H showed 1.2 µM (3 of 3 replicates; controls 1 of 9).
Variant Y29A/Y30W/R90W showed 4.9 µM (3 of 3 replicates; controls 3 of 9).
Variant L27H/Y29L/F95R showed 750 nM (3 of 3 replicates; controls 5 of 9).
Variant Y29K/R90C/G94V showed 390 nM (1 of 3 replicates; controls 1 of 9).

Empty control strains, which show no peptide, gave a signal in 28% of pairings with library AAYL52; the median was 8.2 µM and 95% of these signals were weaker than 800 nM. No background was subtracted. For each scFv, signals with the empty controls are counted beside the result.
For reference, the parent read 200 nM as the reference entry and 180 nM as a member of this library.